The assay has as its target Beta-secretase 1 (Homo sapiens, UniProt P56817). In words: FRET Assay: The enzyme (truncated form) was diluted to 6 μg/mL (stock 1.3 mg/mL) and the substrate (Europium)[…](Qsy7) to 200 nM (stock 120 μM) in reaction buffer (NaAcetate, chaps, triton x-100, EDTA pH4.5). The robotic systems Biomek FX and Velocity 11 were used for all liquid handling and the enzyme and substrate solutions were kept on ice until they were placed in the robotic system. Enzyme (9 μl) was added to the plate then 1 μl of compound in dimethylsulphoxide was added, mixed and pre-incubated for 10 minutes. Substrate (10 μl) was then added, mixed and the reaction proceeded for 15 minutes at r.t. The reaction was stopped with the addition of Stop solution (7 μl, NaAcetate, pH 9). The fluorescence of the product was measured on a Victor II plate reader with an excitation wavelength of 340 nm and an emission wavelength of 615 nm. The assay was performed in a Costar 384 well round bottom, low volume, non-binding surface plate (Corning #3676). […] The dimethylsulphoxide control, instead of test compound, defined the 100% activity level and 0% activity was defined by wells lacking enzyme (replaced with reaction buffer).

Protein sequences, listed by entry. Tags and fused reporters are not part of them. Lines headed by an entry give the natural chain unless they say otherwise; changes in a name come on top.
UniProt P56817: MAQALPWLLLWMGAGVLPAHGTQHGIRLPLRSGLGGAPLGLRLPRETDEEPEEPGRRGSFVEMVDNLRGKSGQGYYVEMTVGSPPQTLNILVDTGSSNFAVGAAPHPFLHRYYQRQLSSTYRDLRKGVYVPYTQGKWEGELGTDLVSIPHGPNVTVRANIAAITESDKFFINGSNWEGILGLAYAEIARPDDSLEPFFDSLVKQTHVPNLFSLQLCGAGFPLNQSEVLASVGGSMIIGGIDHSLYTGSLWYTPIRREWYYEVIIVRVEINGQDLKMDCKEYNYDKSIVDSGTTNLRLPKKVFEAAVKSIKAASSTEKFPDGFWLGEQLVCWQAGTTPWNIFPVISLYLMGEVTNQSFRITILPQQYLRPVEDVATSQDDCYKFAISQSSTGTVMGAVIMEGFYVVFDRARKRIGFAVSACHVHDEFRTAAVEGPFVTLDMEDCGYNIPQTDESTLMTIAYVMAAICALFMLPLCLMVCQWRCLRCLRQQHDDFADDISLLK

What is called IC50 is the midpoint of a concentration-inhibition curve. A low value points to higher potency.

The compound `CO[C@H]1CC[C@]2(CC1)Cc1ccc(-c3cc(Cl)cc(C#N)c3)cc1C21N=C(C)C(N)=N1` (some centres not stated) had an IC50 of 0.63 nM.

`CO[C@H]1CC[C@]2(CC1)Cc1ccc(-c3cncc(Cl)c3)cc1C21N=C(C)C(N)=N1` (some centres not stated) came in with an IC50 of 1.1 nM.

The record behind these values is ChEMBL document CHEMBL5726830, “Compounds and their use as BACE inhibitors” (2018).
